Measured values taken from paper PMC10350926 (2023).
Like-named read-outs stand apart in the source and are kept apart here.

Protein sequences, listed by entry. Tags and fused reporters are not part of them. Lines headed by an entry give the natural chain unless they say otherwise; changes in a name come on top.
UniProt P21817: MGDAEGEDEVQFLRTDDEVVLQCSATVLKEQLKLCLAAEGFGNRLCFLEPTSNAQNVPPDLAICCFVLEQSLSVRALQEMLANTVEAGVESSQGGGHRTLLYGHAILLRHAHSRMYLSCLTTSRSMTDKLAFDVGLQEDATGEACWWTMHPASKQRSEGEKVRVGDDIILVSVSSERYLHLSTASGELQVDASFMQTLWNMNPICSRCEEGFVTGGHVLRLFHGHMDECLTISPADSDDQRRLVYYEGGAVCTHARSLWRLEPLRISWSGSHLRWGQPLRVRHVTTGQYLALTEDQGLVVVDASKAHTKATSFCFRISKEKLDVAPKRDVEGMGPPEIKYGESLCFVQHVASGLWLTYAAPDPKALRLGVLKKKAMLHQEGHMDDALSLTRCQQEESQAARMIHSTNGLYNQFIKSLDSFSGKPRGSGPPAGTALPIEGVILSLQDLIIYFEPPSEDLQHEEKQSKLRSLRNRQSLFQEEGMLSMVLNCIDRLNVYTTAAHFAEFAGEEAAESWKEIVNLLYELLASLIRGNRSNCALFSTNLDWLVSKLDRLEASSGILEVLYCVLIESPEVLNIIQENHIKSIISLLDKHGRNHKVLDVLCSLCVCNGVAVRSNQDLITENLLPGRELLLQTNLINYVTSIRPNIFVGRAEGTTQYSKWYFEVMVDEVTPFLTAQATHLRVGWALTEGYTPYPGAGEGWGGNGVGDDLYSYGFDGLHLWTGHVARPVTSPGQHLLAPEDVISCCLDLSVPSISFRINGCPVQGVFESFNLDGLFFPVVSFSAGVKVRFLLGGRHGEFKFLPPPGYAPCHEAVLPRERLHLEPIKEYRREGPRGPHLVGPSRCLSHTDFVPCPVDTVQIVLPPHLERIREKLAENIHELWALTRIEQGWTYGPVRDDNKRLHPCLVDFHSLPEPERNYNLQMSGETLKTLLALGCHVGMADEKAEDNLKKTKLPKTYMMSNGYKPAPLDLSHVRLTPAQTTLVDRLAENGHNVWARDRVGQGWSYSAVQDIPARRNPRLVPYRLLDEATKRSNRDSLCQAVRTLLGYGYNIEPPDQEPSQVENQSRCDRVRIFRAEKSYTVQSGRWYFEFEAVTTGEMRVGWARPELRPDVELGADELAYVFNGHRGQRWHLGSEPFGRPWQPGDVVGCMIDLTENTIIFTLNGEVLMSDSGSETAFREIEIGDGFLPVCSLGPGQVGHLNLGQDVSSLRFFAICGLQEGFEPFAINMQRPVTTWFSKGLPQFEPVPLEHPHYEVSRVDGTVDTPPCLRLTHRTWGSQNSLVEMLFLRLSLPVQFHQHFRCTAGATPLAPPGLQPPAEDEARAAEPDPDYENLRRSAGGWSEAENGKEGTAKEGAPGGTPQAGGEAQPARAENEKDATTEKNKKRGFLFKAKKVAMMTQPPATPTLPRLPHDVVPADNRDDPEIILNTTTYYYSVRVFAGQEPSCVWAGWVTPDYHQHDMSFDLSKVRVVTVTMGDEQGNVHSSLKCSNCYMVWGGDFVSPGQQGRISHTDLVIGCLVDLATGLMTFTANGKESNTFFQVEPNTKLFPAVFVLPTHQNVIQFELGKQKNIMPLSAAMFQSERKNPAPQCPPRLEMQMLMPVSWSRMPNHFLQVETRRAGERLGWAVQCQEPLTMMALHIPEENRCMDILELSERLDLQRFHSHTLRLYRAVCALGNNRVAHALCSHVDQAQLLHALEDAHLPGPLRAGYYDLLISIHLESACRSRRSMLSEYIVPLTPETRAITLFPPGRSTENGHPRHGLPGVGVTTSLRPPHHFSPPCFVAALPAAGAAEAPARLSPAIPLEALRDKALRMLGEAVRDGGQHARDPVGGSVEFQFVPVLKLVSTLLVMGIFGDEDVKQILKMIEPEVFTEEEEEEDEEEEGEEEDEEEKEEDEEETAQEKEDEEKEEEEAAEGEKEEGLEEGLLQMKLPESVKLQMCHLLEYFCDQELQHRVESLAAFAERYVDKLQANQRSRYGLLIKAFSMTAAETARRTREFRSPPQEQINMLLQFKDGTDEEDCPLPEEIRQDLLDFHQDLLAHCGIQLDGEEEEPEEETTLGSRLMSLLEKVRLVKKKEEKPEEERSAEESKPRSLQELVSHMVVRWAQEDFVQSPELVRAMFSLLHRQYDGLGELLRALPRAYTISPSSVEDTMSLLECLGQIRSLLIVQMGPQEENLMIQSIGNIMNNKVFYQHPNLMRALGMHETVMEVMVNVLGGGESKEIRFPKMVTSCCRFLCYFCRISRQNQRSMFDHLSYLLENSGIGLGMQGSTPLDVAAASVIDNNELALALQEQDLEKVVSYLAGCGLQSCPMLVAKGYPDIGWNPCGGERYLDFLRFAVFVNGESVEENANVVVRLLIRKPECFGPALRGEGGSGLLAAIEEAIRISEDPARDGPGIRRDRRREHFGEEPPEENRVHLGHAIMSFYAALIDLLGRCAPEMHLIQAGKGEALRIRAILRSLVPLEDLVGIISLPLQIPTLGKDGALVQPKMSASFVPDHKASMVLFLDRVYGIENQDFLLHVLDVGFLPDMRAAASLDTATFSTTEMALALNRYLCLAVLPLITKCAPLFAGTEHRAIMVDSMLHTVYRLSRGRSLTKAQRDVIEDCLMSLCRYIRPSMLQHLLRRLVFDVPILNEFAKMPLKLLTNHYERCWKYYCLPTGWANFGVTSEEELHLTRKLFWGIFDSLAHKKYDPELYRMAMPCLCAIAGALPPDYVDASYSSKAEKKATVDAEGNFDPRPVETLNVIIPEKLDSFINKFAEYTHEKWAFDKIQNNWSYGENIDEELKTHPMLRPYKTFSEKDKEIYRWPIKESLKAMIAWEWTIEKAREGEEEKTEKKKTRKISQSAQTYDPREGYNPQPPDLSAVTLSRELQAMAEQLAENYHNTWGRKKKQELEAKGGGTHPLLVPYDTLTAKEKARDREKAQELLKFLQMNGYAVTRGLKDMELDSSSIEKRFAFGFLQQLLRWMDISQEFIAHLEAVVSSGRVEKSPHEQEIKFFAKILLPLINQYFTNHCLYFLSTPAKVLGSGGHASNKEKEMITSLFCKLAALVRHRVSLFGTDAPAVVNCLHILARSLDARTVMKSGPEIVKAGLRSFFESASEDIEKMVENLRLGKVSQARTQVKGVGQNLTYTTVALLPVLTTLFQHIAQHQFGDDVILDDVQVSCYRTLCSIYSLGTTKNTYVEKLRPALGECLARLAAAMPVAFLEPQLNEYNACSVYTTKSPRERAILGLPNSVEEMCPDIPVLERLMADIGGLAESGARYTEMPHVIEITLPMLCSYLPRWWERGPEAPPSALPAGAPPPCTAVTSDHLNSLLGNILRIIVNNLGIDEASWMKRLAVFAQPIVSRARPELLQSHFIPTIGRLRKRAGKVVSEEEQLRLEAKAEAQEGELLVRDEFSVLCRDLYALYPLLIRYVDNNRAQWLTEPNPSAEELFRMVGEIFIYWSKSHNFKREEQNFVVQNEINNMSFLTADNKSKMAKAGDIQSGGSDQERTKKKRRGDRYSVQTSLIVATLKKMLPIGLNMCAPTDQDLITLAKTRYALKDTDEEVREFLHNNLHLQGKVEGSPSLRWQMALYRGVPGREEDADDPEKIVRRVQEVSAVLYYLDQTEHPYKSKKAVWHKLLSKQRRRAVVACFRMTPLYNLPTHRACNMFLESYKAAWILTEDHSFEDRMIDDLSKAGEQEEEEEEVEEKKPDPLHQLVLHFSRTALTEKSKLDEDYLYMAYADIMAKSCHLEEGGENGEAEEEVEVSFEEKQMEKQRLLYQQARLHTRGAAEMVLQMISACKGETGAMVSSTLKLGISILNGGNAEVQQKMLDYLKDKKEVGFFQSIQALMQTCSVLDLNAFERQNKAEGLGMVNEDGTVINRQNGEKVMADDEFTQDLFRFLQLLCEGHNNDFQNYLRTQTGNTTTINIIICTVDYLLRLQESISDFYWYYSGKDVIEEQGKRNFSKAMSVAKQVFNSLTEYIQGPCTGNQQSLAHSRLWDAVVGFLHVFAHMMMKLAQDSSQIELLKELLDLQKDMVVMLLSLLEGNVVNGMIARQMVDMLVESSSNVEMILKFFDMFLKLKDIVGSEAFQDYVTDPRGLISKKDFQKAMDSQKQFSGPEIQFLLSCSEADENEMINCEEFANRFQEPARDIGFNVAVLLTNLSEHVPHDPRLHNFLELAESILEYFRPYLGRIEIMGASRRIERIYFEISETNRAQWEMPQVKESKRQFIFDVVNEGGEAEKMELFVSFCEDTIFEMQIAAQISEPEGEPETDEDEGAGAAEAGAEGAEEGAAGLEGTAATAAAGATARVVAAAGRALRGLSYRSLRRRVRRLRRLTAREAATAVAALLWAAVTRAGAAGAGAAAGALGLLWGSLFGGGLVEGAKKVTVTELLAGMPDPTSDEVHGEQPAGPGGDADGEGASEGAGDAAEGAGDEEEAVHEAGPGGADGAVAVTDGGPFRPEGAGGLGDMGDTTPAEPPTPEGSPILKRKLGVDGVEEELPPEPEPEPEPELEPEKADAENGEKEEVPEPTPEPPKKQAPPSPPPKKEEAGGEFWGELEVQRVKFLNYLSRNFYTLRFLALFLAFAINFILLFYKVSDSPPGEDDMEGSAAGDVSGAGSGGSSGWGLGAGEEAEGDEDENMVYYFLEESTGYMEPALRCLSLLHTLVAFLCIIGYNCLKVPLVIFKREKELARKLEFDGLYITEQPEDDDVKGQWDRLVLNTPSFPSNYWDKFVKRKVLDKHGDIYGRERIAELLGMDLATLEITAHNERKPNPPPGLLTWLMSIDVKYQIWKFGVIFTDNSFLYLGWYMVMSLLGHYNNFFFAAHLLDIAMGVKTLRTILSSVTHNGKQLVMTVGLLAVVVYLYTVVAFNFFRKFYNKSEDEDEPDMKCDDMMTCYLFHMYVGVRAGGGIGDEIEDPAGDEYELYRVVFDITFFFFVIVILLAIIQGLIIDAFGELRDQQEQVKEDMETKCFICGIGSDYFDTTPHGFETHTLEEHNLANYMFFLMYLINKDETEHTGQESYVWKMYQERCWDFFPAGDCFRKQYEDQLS

B1: calstabin1 (FKBP12) (protein)
chain: not shown
B2: calstabin1 (FKBP12) (protein)
chain: not shown
modifications: RyR1 from essential tremor cerebellum, PKA-phosphorylated S2844, oxidized and nitrosylated

Key:
RyR1 [1] = molecular target: T1, RyR1 (Homo sapiens, UniProt P21817); test: [35S]-calstabin1 radioligand filter binding to immunoprecipitated RyR1
RyR1 [2] = molecular target: T1, RyR1; test: as above; remark: listed apart in the source

Binder	Kd (RyR1 [1]) [nM]	Kd (RyR1 [2]) [nM]
B1	79.1	–
B2	–	235
